Values quoted from earlier work in patent US6624199B1, “Aminobenzophenones” (Leo Pharmaceuticals Products Ltd. A/S, priority 1999, dated 2003).

Settings: topical administration; cited from earlier work

For CCC[C@@H]1C[C@@H](C(=O)N[C@@H]([C@H]2O[C@H](SC)[C@H](O)[C@@H](O)[C@H]2O)[C@H](C)Cl)N(C)C1 [Clindamycin], the Potential irritant is listed as “No”.
